Data from patent US20150073033A1 (University of Texas, published 2015).

Target: endogenous HIF1α (human, UniProt Q16665)
Assay: co-IP, U87/EGFR cells

B1: endogenous RelA (other, human, UniProt Q04206 1-551, looked up)
chain: MDELFPLIFPAEPAQASGPYVEIIEQPKQRGMRFRYKCEGRSAGSIPGERSTDTTKTHPTIKINGYTGPGTVRISLVTKDPPHRPHPHELVGKDCRDGFYEAELCPDRCIHSFQNLGIQCVKKRDLEQAISQRIQTNNNPFQVPIEEQRGDYDLNAVRLCFQVTVRDPSGRPLRLPPVLSHPIFDNRAPNTAELKICRVNRNSGSCLGGDEIFLLCDKVQKEDIEVYFTGPGWEARGSFSQADVHRQVAIVFRTPPYADPSLQAPVRVSMQLRRPSDRELSEPMEFQYLPDTDDRHRIEEKRKRTYETFKSIMKKSPFSGPTDPRPPPRRIAVPSRSSASVPKPAPQPYPFTSSLSTINYDEFPTMVFPSGQISQASALAPAPPQVLPQAPAPAPAPAMVSALAQAPAPVPVLAPGPPQAVAPPAPKPTQAGEGTLSEALLQLQFDDEDLGALLGNSTDPAVFTDLASVDNSEFQQLLNQGIPVAPHTTEPMLMEYPEAITRLVTGAQRPPDPAPAPLGAPGLPNGLLSGDEDFSSIADMDFSALLSQISS
binding result: binds
